Values quoted from earlier work in patent US9213031B2, “Use of Cbl as biomarker for identifying subject suitable for treatment with anti-c-Met antibody” (SAMSUNG ELECTRONICS CO., LTD., priority 2012, dated 2015).
Read-outs that look alike come from different tables or passages of the source.

System: lung cancer patients LXFE1422, LXFA526, LXFA1647
Settings: cited from earlier work

Cetuximab: an EGFR-targeting anticancer therapeutic
resistance to Cetuximab (LXFA526 patient): cannot be treated with Cetuximab due to their resistance | resistance to Cetuximab (LXFA1647 patient): cannot be treated with Cetuximab due to their resistance | resistance to Cetuximab (LXFE1422 patient): not resistant
